## Binding of CDR-mutated scFvs to a peptide of the spike HR2 region

Data: MIT Lincoln Laboratory AlphaSeq set, Li et al. 2023, doi:10.1038/s41467-023-39022-2, as distributed in FLAb.

Target: peptide PDVDLGDISGINAS, taken from heptad repeat 2 (HR2) of SARS-CoV-2 spike.

Ab-14 is the parent antibody, in scFv form: VH, then the linker GGGGSGGGGSGGGGS, then VL. The heavy chain is unchanged in all variants.
VH: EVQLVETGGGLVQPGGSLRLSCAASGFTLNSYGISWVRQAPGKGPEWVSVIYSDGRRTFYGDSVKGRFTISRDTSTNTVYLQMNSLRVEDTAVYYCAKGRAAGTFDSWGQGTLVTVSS
VL: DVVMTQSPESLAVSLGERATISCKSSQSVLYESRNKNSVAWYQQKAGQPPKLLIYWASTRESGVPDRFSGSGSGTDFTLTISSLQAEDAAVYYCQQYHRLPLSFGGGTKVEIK

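Phage display of a naive human antibody library on the peptide gave the parent. This is the validation round: designs drawn from the data on random variants, tested in the same kind of assay. Group labels follow the data file (Ctrl: baseline library sampled from a position-specific scoring matrix, with some repeated check sequences; En: ensemble of fine-tuned language models; GP: Gaussian process model; HC: hill climbing; Gen: genetic algorithm; Gibbs: Gibbs sampling; a sequence that several methods proposed may carry one label only). In AlphaSeq, yeast of one mating type display the scFv and yeast of the other type display the target. After mating in shaken culture at 30 °C for 16 h, diploids were selected and their barcode pairs sequenced. Scores were corrected for input abundance and mapped to Kd with protein pairs of known affinity run in the same pool. The assay was run in six technical replicates.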

Variants are written as CDR1, CDR2 and CDR3 of the light chain (limits as in the source). Parent: KSSQSVLYESRNKNSVA, WASTRES, QQYHRLPLS. Kd is apparent (estimated from mating counts) and averaged on the log scale over replicates with a signal. Smaller is tighter.

{"CDR-L1": "KRSQSVLYESRNKQSVA", "CDR-L2": "SASTRES", "CDR-L3": "EQYHRLPLS", "group": "Ctrl", "Kd (apparent)": "320 nM", "detected": "4 of 6", "control signals": "2 of 18"}
{"CDR-L1": "KLGGVTEYEMRNSNSVA", "CDR-L2": "QMTTRES", "CDR-L3": "QQYHRLPLS", "group": "En_HC", "Kd (apparent)": "4.4 nM", "detected": "6 of 6", "control signals": "0 of 18"}
{"CDR-L1": "QLTWNDRGHQAKGGSIA", "CDR-L2": "DATETME", "CDR-L3": "QQYMHLPLY", "group": "En_Gibbs", "Kd (apparent)": "1.5 nM", "detected": "6 of 6", "control signals": "0 of 18"}
{"CDR-L1": "KLPQSWLYESRNKNSVA", "CDR-L2": "NASTRES", "CDR-L3": "QQYHRLPLS", "group": "GP_Gen", "Kd (apparent)": "870 pM", "detected": "6 of 6", "control signals": "3 of 18"}
{"CDR-L1": "KSSQSVVYESRNKNSVA", "CDR-L2": "WATTRES", "CDR-L3": "QQYHRLPLS", "group": "Ctrl", "Kd (apparent)": "440 nM", "detected": "1 of 6", "control signals": "2 of 18"}
{"CDR-L1": "MLSDLVRMGVRNTNSVA", "CDR-L2": "DNSTRGS", "CDR-L3": "QQYDRLPLS", "group": "En_HC", "Kd (apparent)": "260 nM", "detected": "3 of 6", "control signals": "0 of 18"}
{"CDR-L1": "TLYGLSMSMSKEKNNVA", "CDR-L2": "EMTTREK", "CDR-L3": "QQYDRLPLI", "group": "En_Gen", "Kd (apparent)": "3.8 nM", "detected": "6 of 6", "control signals": "2 of 18"}
{"CDR-L1": "MGLESYQQGVHEMNNVA", "CDR-L2": "EGDQKLD", "CDR-L3": "QQYYRLPLL", "group": "En_Gibbs", "Kd (apparent)": "2.7 nM", "detected": "6 of 6", "control signals": "3 of 18"}
{"CDR-L1": "KLSQSEPYESRCANSVA", "CDR-L2": "NASTRCE", "CDR-L3": "QQYHRLPLS", "group": "GP_Gibbs", "Kd (apparent)": "9.9 nM", "detected": "6 of 6", "control signals": "0 of 18"}
{"CDR-L1": "MISQLYNMGQFAINSVA", "CDR-L2": "QASIRNE", "CDR-L3": "QQYDRLPLA", "group": "En_Gen", "Kd (apparent)": "27 nM", "detected": "6 of 6", "control signals": "1 of 18"}
{"CDR-L1": "HLGGTMTWESHAKNSVA", "CDR-L2": "QSNTRAE", "CDR-L3": "QQYHRLPLS", "group": "En_HC", "Kd (apparent)": "1.2 nM", "detected": "6 of 6", "control signals": "3 of 18"}
{"CDR-L1": "KLSISMLHESINKHSVA", "CDR-L2": "EVRTREE", "CDR-L3": "QQYDRLPLS", "group": "En_HC", "Kd (apparent)": "3.6 nM", "detected": "6 of 6", "control signals": "3 of 18"}
{"CDR-L1": "KLEQSEPYESRNKNSVA", "CDR-L2": "NASQRES", "CDR-L3": "QQYHRLPLS", "group": "GP_Gen", "Kd (apparent)": "1.1 nM", "detected": "6 of 6", "control signals": "1 of 18"}
{"CDR-L1": "KLYQSVLYESRNKNSVA", "CDR-L2": "NASQRLS", "CDR-L3": "QQYHRLPLS", "group": "GP_Gen", "Kd (apparent)": "2.9 nM", "detected": "6 of 6", "control signals": "1 of 18"}
{"CDR-L1": "HSSPSVMYESRNKNSVA", "CDR-L2": "NASTRES", "CDR-L3": "QQYHRLPLS", "group": "GP_HC", "Kd (apparent)": "690 pM", "detected": "6 of 6", "control signals": "0 of 18"}
{"CDR-L1": "TLSDVTRMESNKKSSIA", "CDR-L2": "DMSNRAD", "CDR-L3": "QQYHRLPIS", "group": "En_HC", "Kd (apparent)": "2.5 nM", "detected": "6 of 6", "control signals": "2 of 18"}
{"CDR-L1": "KSSQSELYESMNKNSVA", "CDR-L2": "WASTRES", "CDR-L3": "QQYHRLPLS", "group": "Ctrl", "Kd (apparent)": "10 nM", "detected": "5 of 6", "control signals": "2 of 18"}
{"CDR-L1": "KVSQSYLYESRNKNSVA", "CDR-L2": "QASTRES", "CDR-L3": "QQYHRLPLS", "group": "GP_Gen", "Kd (apparent)": "960 pM", "detected": "6 of 6", "control signals": "2 of 18"}
{"CDR-L1": "KLSESFLYESRNKNSVA", "CDR-L2": "DASTRLE", "CDR-L3": "QQYHRLPLS", "group": "GP_Gibbs", "Kd (apparent)": "470 pM", "detected": "6 of 6", "control signals": "1 of 18"}
{"CDR-L1": "KSSQSVLYESRNKNSLA", "CDR-L2": "WAMTRES", "CDR-L3": "QQYHVLPLS", "group": "Ctrl", "Kd (apparent)": "32 nM", "detected": "1 of 6", "control signals": "0 of 18"}
{"CDR-L1": "KSSPSYLYESHNKNSVA", "CDR-L2": "NASTRMS", "CDR-L3": "QQYHRLPLS", "group": "GP_HC", "Kd (apparent)": "3.5 nM", "detected": "6 of 6", "control signals": "2 of 18"}

For reference, 3 entries of the list once more:

CDR-L1	CDR-L2	CDR-L3	group	Kd (apparent)	detected	control signals
MGLESYQQGVHEMNNVA	EGDQKLD	QQYYRLPLL	En_Gibbs	2.7 nM	6 of 6	3 of 18
HSSPSVMYESRNKNSVA	NASTRES	QQYHRLPLS	GP_HC	690 pM	6 of 6	0 of 18
KRSQSVLYESRNKQSVA	SASTRES	EQYHRLPLS	Ctrl	320 nM	4 of 6	2 of 18

Of ten entries with the parent sequence, four were seen in most replicates (averages 2.2 nM to 240 nM), three in one and three in none, so single entries are noisy. Values of this round are not directly comparable with the first-round values of the same sequences. In the paper, a design with two or fewer of six values counts as a poor binder. Empty control strains, which show no peptide, gave a signal in 4% of pairings with all light chain designs; the median was 430 nM and 95% of these signals were weaker than 38 nM. No background was subtracted. Also given: how often the same scFv was detected with the empty control strains.